The target in assay [1] is Neuronal acetylcholine receptor; alpha4/beta2 (Rattus norvegicus, UniProt P09483+P12390).
Assay [2] concerns the target Neuronal acetylcholine receptor subunit alpha-7 (Rattus norvegicus, UniProt Q05941). The experiment in a line: Binding affinity to subtype Nicotinic acetylcholine receptor alpha7 using [3H]-MLA as radioligand in rat brain.

By UniProt entry, the sequences of proteins in these tests, tags left out. Residues count along the entry.
UniProt P09483, 31-630 limits assumed: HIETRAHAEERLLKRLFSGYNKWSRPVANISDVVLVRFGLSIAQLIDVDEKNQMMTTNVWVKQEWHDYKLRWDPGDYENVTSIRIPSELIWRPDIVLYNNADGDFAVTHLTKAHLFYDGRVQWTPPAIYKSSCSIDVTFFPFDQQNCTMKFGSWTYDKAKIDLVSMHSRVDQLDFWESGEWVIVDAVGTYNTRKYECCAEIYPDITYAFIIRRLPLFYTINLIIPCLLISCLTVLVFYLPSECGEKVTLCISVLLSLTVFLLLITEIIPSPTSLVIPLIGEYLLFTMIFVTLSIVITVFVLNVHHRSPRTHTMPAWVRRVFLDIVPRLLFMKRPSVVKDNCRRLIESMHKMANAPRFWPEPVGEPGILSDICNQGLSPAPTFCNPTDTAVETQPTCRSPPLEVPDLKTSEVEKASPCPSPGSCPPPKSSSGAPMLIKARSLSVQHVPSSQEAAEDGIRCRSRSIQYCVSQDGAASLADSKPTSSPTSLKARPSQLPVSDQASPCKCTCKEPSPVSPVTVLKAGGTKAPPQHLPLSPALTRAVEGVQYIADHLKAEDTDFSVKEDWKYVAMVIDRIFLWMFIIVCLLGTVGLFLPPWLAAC
UniProt P12390, 25-500 limits assumed: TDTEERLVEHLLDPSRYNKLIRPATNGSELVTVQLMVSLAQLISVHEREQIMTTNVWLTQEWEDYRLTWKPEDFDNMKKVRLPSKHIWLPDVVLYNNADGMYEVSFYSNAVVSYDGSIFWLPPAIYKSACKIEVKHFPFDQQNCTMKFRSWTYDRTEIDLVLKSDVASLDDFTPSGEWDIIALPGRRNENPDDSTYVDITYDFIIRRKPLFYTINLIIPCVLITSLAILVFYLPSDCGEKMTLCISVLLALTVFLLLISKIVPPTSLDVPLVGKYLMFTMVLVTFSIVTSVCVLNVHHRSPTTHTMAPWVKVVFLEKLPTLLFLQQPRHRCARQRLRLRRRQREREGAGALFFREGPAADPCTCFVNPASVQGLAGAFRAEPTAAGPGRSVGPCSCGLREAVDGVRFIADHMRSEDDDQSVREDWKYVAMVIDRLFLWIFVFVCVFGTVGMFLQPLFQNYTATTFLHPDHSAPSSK
UniProt Q05941, 23-502 limits assumed: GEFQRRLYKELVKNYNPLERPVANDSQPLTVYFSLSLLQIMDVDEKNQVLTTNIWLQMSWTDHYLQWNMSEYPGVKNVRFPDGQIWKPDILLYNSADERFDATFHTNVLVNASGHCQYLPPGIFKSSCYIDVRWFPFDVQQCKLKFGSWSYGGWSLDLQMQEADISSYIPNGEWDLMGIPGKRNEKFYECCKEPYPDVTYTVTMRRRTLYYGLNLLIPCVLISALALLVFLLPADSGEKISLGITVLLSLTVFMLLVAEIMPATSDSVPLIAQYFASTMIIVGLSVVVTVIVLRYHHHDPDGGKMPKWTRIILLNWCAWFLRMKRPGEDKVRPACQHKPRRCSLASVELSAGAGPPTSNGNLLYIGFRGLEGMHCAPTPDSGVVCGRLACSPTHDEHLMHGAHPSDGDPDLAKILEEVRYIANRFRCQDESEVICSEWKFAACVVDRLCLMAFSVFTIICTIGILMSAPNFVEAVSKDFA

`CC(=O)C1=CCCC2CCC1N2` (configuration not stated): the values for the inhibition constant Ki in assay [1] and in assay [2] were 1.1 nM and 90 nM, respectively.

Broadly, the Ki is a measure of affinity in units of concentration, obtained from inhibition or displacement.

The values above are taken from ChEMBL document CHEMBL1135731, “Synthesis and nicotinic binding studies on enantiopure diazine analogues of the novel (2-chloro-5-pyridyl)-9-azabicyclo[4.2.1]non-2-ene UB-165” (J Med Chem, 2002).
